Experimental data: paper PMC5390258, “CMD-05, a novel promising clinical anti-diabetic drug candidate, in vivo and vitro studies” (Scientific Reports, 2017)

By UniProt entry, the sequences of proteins in these tests, tags left out. Where a name states a change or a piece, a line headed by the entry shows the natural chain unless it says otherwise.
UniProt P14740: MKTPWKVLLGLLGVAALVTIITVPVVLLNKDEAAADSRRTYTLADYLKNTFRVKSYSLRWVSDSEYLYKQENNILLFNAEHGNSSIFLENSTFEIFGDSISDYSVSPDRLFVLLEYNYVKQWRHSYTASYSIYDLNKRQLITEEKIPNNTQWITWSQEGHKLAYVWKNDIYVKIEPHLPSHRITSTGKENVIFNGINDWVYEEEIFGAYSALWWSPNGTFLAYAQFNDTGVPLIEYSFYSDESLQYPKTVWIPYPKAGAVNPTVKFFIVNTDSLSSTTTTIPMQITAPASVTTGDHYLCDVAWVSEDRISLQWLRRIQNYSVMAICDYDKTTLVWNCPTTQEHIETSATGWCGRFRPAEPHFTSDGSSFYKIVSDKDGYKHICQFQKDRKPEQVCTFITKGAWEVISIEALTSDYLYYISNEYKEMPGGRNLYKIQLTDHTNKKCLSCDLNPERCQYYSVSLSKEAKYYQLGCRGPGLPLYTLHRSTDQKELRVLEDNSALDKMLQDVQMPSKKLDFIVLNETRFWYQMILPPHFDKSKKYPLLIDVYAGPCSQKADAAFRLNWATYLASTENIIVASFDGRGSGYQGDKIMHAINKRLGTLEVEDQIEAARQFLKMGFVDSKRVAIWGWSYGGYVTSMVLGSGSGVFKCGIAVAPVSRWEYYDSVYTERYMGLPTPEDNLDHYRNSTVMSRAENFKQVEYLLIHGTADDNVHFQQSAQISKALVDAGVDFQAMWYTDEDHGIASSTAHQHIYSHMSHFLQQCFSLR

Target: T1, plasma DPP-IV (Rattus norvegicus, UniProt P14740)
T1 construct: from tissue; host or cells: plasma of Sprague-Dawley rats
Assay: Plasma DPP-IV activity determination in model rats
Format: in vivo

inhibition at 3 mg/kg (read-out: plasma DPP-IV inhibition rate, fasted plasma, 3 mg/kg, model rats): ~60% | inhibition at 3 mg/kg (read-out: plasma DPP-IV inhibition, glucose load plasma, 3 mg/kg, model rats): ~80% | inhibition at 3 mg/kg (read-out: plasma DPP-IV inhibition, random plasma, 3 mg/kg, model rats): ~60%
Compound: N#C[C@@H]1CCCN1C(=O)CNC12CC3CC(CC(O)(C3)C1)C2 [vildagliptin, reference compound]

Where two headings read alike, the source gives them in different places.
